This assay concerns the target human H3 receptor (Homo sapiens, UniProt Q9Y5N1). Kind of assay: cAMP quantification assay for human H3 receptor (DiscoveRx cAMP XS+). Particulars: read-out: Potency Range (IC50 values); CHO-K1 cells expressing human H3 receptors; inhibition of agonist-induced cAMP decrease; 100 nM histamine, 10 μM forskolin.

Protein sequences, listed by entry. Tags and fused reporters are not part of them. Lines headed by an entry give the natural chain unless they say otherwise; changes in a name come on top.
UniProt Q9Y5N1: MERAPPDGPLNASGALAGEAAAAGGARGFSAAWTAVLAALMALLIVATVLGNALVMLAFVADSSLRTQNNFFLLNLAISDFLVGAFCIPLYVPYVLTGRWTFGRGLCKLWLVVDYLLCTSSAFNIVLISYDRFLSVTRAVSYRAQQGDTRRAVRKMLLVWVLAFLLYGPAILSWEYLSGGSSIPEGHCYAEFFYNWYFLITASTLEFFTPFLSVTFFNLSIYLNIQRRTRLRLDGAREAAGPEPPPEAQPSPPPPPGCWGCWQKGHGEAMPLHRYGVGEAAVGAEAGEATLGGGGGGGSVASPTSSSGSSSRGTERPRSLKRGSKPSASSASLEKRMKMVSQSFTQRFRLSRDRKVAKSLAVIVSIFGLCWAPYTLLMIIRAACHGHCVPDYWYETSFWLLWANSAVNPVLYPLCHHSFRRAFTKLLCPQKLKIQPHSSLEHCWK

SMILES strings stand for the structures. Bounds are passed on as bounds.

Turning to `Cc1ccc(OC(=O)N2CC(C(=O)N3CCCN(C4CCC4)CC3)C2)cn1`, the IC50 (usually the concentration that gives 50% inhibition) was under 50 nM.
